This passage reports IC50 and Kd results from PMC2894972, “Protein-Protein Interaction Antagonists as Novel Inhibitors of Non-Canonical Polyubiquitylation” (PLoS ONE, 2010).

Amino acid sequences for entries named in this document (tags omitted). Residues count along the entry.
UniProt P61088, whole entry: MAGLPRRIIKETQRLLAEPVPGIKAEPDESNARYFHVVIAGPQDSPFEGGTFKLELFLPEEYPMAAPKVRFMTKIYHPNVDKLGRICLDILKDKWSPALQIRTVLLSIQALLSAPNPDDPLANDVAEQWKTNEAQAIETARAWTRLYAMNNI
UniProt Q13404, 2-147 partner limits assumed: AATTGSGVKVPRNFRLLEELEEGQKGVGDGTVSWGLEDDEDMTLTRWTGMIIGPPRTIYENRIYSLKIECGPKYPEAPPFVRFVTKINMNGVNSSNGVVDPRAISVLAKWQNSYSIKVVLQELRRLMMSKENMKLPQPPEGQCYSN

By IC50 is commonly meant the concentration needed to halve the response being measured.

Assay [1] has as its target Ubc13-Uev1 heterodimer (Homo sapiens, UniProt P61088). The experiment in a line: surface plasmon resonance competition: Ubc13 preincubated with compound, injected over immobilized Uev1. Conditions: inhibition of Ubc13-Uev1 interaction; Ubc13 400 nM; 10 mM HEPES, 0.15 M NaCl, pH 7.4; legend prints 10 pM. In general terms: Surface plasmon resonance follows binding to a sensor surface in real time, without labels.

Assay [2] concerns the target Ubc13 (Homo sapiens, UniProt P61088). Description: surface plasmon resonance, lysine derivative of Ia immobilized on the chip, Ubc13 in mobile phase. The note with it: read-out: dissociation constant; labelled compound: lysine derivative immobilized on CM chip; value printed as that of compound Ia.

For the compound `NC(=O)CN(CCc1ccccn1)C(=O)C1CC(=O)N(CCc2ccc(F)cc2)CC(=O)N1CCc1ccc(F)cc1` (centres unmarked), the IC50 in assay [1] was found to be 10 pM. Consider `NCCCCC(NC(=O)CN(CCc1ccccn1)C(=O)C1CC(=O)N(CCc2ccc(F)cc2)CC(=O)N1CCc1ccc(F)cc1)C(N)=O` (centres unmarked), for which the Kd in assay [2] came out at 4.4 pM.
